In general, stoichiometry N refers to the number of molecules, sites or subunits per partner or assembly.

One substance from PMC5548782 can be followed below.

The target of this assay is recombinant Water-Soluble Chlorophyll Protein (WSCP) from Lepidium virginicum with a C-terminal hexahistidyl tag (Lepidium virginicum) (UniProt O04797). Nature of the assay: SEC; WSCP reconstituted with Chl a; Superose 12 10/300 GL, 20 mM sodium phosphate pH 7.8, room temperature. On the technique in general: In gel filtration, larger molecules generally elute earlier.

“recombinant Water-Soluble Chlorophyll Protein (WSCP) from Lepidium virginicum with a C-terminal hexahistidyl tag (from UniProt O04797 27-206) (natural protein)”: the stoichiometry N amounted to 4.
